{"source": "ChEMBL document CHEMBL1128959", "about": "“Quinoline-substituted dihydroindoles as cysLT1 (LTD4 receptor) antagonists” (Bioorg Med Chem Lett, 1996)", "key": {"[1]": {"target": "T1, Cysteinyl leukotriene receptor 1 (Cavia porcellus) (UniProt Q2NNR5)", "T1 sequence (whole entry)": "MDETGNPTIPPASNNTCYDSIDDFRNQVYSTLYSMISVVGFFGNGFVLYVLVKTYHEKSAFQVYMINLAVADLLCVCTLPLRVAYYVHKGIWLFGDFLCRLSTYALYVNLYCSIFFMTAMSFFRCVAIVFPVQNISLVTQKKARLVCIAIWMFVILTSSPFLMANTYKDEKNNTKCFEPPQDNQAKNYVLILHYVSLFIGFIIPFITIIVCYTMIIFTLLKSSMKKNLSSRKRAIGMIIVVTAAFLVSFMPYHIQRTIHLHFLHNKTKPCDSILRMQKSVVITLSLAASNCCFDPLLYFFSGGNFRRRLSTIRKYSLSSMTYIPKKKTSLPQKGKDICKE", "experiment": "Compound was tested for its inhibitory activity against specific binding of [3H]LTD4 to guinea pig ileum.", "assay_type": "tissue-based"}, "[2]": {"target": "T1, Cysteinyl leukotriene receptor 1 (Cavia porcellus)", "experiment": "Compound was tested for its inhibitory activity against specific binding of [3H]LTD4 to guinea pig trachea.", "assay_type": "tissue-based"}}, "data": [{"compound": "c1cc(CN2CCc3cccc(CCc4nnn[nH]4)c32)cc(OCc2ccc3ccccc3n2)c1", "values": [{"measurement": "pKB", "setting": "[1]", "value": 8}, {"measurement": "pKB", "setting": "[2]", "value": 7.8}]}]}
